{"sequences": {"note": "The chains behind the UniProt entries cited, without tags or fusion partners. Where a name states a change or a piece, a line headed by the entry shows the natural chain unless it says otherwise.", "UniProt P10155": "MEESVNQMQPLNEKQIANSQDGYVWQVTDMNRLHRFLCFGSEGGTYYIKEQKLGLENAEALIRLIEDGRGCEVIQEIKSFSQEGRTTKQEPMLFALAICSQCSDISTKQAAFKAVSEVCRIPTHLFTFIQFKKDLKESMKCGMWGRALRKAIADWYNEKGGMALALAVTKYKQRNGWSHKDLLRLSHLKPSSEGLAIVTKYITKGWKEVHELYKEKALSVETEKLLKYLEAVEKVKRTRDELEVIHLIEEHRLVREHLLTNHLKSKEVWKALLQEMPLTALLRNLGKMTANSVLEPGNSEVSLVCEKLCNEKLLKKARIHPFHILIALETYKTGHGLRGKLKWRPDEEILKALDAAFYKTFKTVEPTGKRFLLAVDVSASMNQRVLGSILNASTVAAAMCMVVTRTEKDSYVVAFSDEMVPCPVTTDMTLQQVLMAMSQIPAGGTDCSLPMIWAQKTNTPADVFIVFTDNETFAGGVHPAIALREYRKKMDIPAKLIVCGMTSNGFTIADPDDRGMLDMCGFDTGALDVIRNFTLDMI"}, "source": "paper PMC11231564", "about": "“Unveiling the Ro60-Ro52 complex” (EXCLI Journal, 2024)", "binders": {"B1": {"name": "Ro52 protein (natural protein, human, UniProt P19474 1-475, looked up)", "chain": "MASAARLTMMWEEVTCPICLDPFVEPVSIECGHSFCQECISQVGKGGGSVCPVCRQRFLLKNLRPNRQLANMVNNLKEISQEAREGTQGERCAVHGERLHLFCEKDGKALCWVCAQSRKHRDHAMVPLEEAAQEYQEKLQVALGELRRKQELAEKLEVEIAIKRADWKKTVETQKSRIHAEFVQQKNFLVEEEQRQLQELEKDEREQLRILGEKEAKLAQQSQALQELISELDRRCHSSALELLQEVIIVLERSESWNLKDLDITSPELRSVCHVPGLKKMLRTCAVHITLDPDTANPWLILSEDRRQVRLGDTQQSIPGNEERFDSYPMVLGAQHFHSGKHYWEVDVTGKEAWDLGVCRDSVRRKGHFLLSSKSGFWTIWLWNKQKYEAGTYPQTPLHLQVPPCQVGIFLDYEAGMVSFYNITDHGSLIYSFSECAFTGPLRPFFSPGFNDGGKNTAPLTLCPLNIGSQGSTDY", "notes": "Ro52/TRIM21 (52 kDa); also called TRIM21; Ro52/Trim21"}}, "key": {"[1]": {"molecular_target": "T1, Ro60 protein (recombinant human protein) (human, UniProt P10155)", "T1 construct": "Ro60/TROVE2 (60 kDa), human, recombinant; Coupled covalently to the QCM-D chip (mercaptopropionic acid SAM, EDC/NHS, carbohydrazide) in a1 and a2; in solution at 50 mg/L in a3; also called TROVE2; Ro60/Trove2; source: bought: Deltaclon (recombinant human protein)", "experiment": "QCM-D; Ro60 coupled to the chip; Ro52 50 mg/L injected in a 100 mM CaCl2 solution; 50 µL/min, 25 °C; one-to-one binding kinetics model; apparent equilibrium constant", "conditions": "both partners purified"}, "[2]": {"molecular_target": "T1, Ro60 protein (recombinant human protein)", "experiment": "QCM-D; Ro60 coupled to the chip; Ro52 300 mg/L (BSA 700 mg/L) flowed over; 1x PBS pH 7.4 lacking CaCl2, 50 µL/min, 25 °C; one-to-one binding kinetics model; apparent equilibrium constant", "conditions": "both partners purified"}}}
{"binder": "B1", "values": [{"measurement": "Ka", "setting": "[1]", "value": "3.7e+06", "unit": "M⁻¹"}, {"measurement": "kon", "setting": "[1]", "value": "2600 ± 100", "unit": "M⁻¹ s⁻¹"}, {"measurement": "Ka", "setting": "[2]", "value": 143000, "unit": "M⁻¹"}, {"measurement": "kon", "setting": "[2]", "value": "449 ± 16", "unit": "M⁻¹ s⁻¹"}]}
